miR-21 reporter = miR-21 reporter, rising signal | AID 2288 | HeLa miR-21 FLuc reporter, luciferase, 48 h | 340,000 tested, under 10 active | Potency, µM (doses to about 38.3 µM), for inactives: at the top dose reporter change, positive = more light; active = well fitted rising curve with a large enough effect; inconclusive = small, poorly fitted or top-dose-only effect; inactive = no such curve, though single readings can be large or run the other way;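 note: % of control where 0% means no effect; miR-21 action dims this reporter so a rising signal means less miR-21 action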
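HeLa cells stably expressing CMV-driven firefly luciferase with a downstream miR-21 binding sequence, endogenously expressing miR-21, were treated with titrations (up to about 40uM final) for 48 hours at 37 degree Celsius. Luciferase luminescence was read after lysis.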
ClpP mod = qHTS Assay for Activators of ClpP | hit rate 1.9% among 340,000 | Potency, µM (titrated, usually from 57.5 µM), for the others: at the top dose activity change, negative = active | ATP-dependent Clp protease proteolytic subunit (Bacillus subtilis (strain 168)), P80244 | purified B. subtilis ClpP, FRET peptide cleavage, 20 min; active = well fitted falling curve with a large enough effect; inconclusive = small, poorly fitted or top-dose-only effect; inactive = no such curve, though single readings can be large or run the other way; also: potency is read from the fitted curve at half-maximal effect; the source files actives as falling curves though it sought activators and does not explain the sign; nearly all actives have a fitted effect of over 65% in size
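Buffer: 100 mM Tris/HCl pH8, 100 mM KCl, 0.05% low protease BSA, 2.5% glycerol, 0.01% Tween-20. ClpP 10 microg/mL final; 20 min RT; delta FRET normalized to ADEP and DMSO controls.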
TrxR1 substrate = is turned over as a substrate by rat TrxR1. O89049. purified TrxR1 substrate turnover, NADPH consumption readout. Potency, µM (top dose mostly 114 µM), for inactives: at the highest dose activity change, negative = substrate turnover. hit rate 0.01% among 390,000. AID 588456; also: potency is read from the fitted curve at half-maximal effect; % is scaled to controls: 0 for no effect and ±100 for the full control effect; nearly all actives have a fitted effect of over 50% in size
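Rat TrxR1, dispensed at 90 nM, was prereduced with 400 uM NADPH (final) for 5 min at ~22 deg C, then incubated with compound 15 min before 400 uM selenite. A first-read NADPH fluorescence drop versus no-compound background flagged substrates.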
TrxR1 inh = inhibitors of rat thioredoxin reductase 1; O89049; Potency, µM (doses to about 114 µM), for inactives: top-dose activity change, negative = inhibition, hits mostly inhibitors; recombinant rTrxR1, NADPH fluorescence consumption, selenite substrate; hit rate 1% among 390,000; also: potency is read from the fitted curve at half-maximal effect; % is scaled to controls: 0 for no effect and ±100 for the full control effect; nearly all actives have a fitted effect of over 65% in size
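Rat TrxR1 (90 nM in the dispensed reagent) was pre-reduced with 400 uM NADPH for 5 min at room temperature, then incubated with compound for 15 min. After 400 uM selenite was added, NADPH fluorescence (Ex 340/Em 450 nm) was followed for 8 min.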
Apoferritin bind = candidate novel general anesthetic via apoferritin binding | P02791 | apoferritin/1-aminoanthracene competitive binding, fluorescence | Potency, µM (top dose mostly 77.5 µM), for inactives: top-dose activity change, negative = displacement, most hits filed as inhibitors | hit rate 0.074% among 350,000; also: potency is read from the fitted curve at half-maximal effect; % is scaled to controls: 0 for no effect and ±100 for the full control effect; nearly all actives have a fitted effect of over 20% in size
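Horse-spleen apoferritin (10 uM) was mixed with 50% saturated 1-aminoanthracene in PBS, exposed to compounds for 10 min at room temperature, and read for fluorescence (ex 380 nm, em 535 nm). Competitive displacement was fitted with a four-parameter Hill equation.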
Numbers without * were called inactive; ? = inconclusive; / = no result given; [ ] = another dose, or the depositor's remark. Rows were chosen to be rich in hits. Some 2.5% of all compounds tested hit in one or more screens of this group. Unless noted, calls follow the shape of the dose curve; as a rule, active = well fitted curve in the direction sought with a large enough effect; inconclusive = small, poorly fitted or top-dose-only effect, or another doubt; inactive = no such curve, though single readings can be large; an effect the other way counts as inactive or inconclusive.

Sequences of proteins named here, by UniProt entry; tags and fusion partners are left off.
ATP-dependent Clp protease proteolytic subunit (Bacillus subtilis (strain 168)), P80244, UniProt P80244, whole entry, looked up: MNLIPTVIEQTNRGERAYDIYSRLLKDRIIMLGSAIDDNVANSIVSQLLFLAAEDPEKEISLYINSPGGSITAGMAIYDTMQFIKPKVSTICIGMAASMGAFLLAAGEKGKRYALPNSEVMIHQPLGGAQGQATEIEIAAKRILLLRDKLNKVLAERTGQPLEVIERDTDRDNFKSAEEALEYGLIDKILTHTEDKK

SMILES	miR-21 reporter	ClpP mod	TrxR1 substrate	TrxR1 inh	Apoferritin bind
CCNC(=O)NC(=O)COC(=O)c1ccccc1SCC(=O)NC(=O)NCC	-27.9%	402.9%	57.3%	35.5µM*	-7.7%
O=C(COC(=O)c1ccccc1SCC(=O)NC1CCS(=O)(=O)C1)NC1CCS(=O)(=O)C1 (stereo not drawn)	-0.6%	/	10.7%[57.1 µM]	18.2%[57.1 µM]	0.7%
COc1ccc(CCNC(=O)c2c[nH]n3c(=O)c(Cc4ccccc4Cl)c(C)nc23)cc1OC	?	4.2%	5.3%[57.1 µM]	9.5%[57.1 µM]	-2.0%
O=S(=O)(c1ccc(NC(=S)Nc2ccc3c(c2)OCO3)cc1)N1CCOCC1	-37.7%	-1.2%	-5.2%	39.8µM*	1.1%
O=C(CCc1ccccc1)NC(=S)Nc1ccc(S(=O)(=O)N2CCOCC2)cc1	0.0%	10µM*	-15.6%	-29.0%	-15.7%
COc1cc(NC(=S)Nc2ccc(S(=O)(=O)N3CCOCC3)cc2)cc(OC)c1OC	-3.2%	-1.2%	9.7%	14.1µM*	-18.7%
O=[N+]([O-])c1cc(Cl)cc(/C=N/NC(=S)Nc2ccc(S(=O)(=O)N3CCOCC3)cc2)c1O	10.1%	-0.5%	-7.2%	79.4µM*	?
CCc1ccc(NC(=O)CC2C(=O)N(c3cccc(C)c3)C(=O)N2Cc2cccc(OC)c2)cc1 (stereo not drawn)	22.3%	-1.9%	-22.4%	-11.0%	-12.1%
COC(=O)c1sc2cccc(F)c2c1S(=O)(=O)NCc1ccc(F)cc1	-1.8%	-29.5%	4.5%[57.1 µM]	17.3%[57.1 µM]	-8.5%
COC(=O)c1ccc(NC(=O)CC2C(=O)N(c3cccc(OC)c3)C(=O)N2Cc2cccc(OC)c2)cc1 (stereo not drawn)	9.8%	1.3%	-4.5%	19.0%	-6.8%
COc1cc(Cl)c(C)cc1NC(=O)C1CCCN(c2ncnc3onc(-c4ccc(F)cc4)c23)C1 (stereo not drawn)	8.3%	-29.9%	2.4%	23.5%	-11.2%
CCCCn1c(-c2ccc(Cl)cc2)nc2c(=O)n(C)c(=O)[nH]c21	-5.0%	11.2µM*	32.6%[57.1 µM]	22.7%[57.1 µM]	-10.0%
Cc1cccc(NC(=O)c2ccc(-c3nc(CSc4ccccc4)c(C)o3)cc2)c1C	15.1%	-1.8%	-4.6%	-0.9%	-16.7%
Cc1ccc(Cl)cc1NC(=O)c1ccc(-c2nc(CSc3ccccc3)c(C)o2)cc1	19.8%	12.6µM*	12.8%	31.6%	-1.1%
COc1ccc(CC(=O)Nc2oc(-c3ccccc3)c(-c3ccccc3)c2C#N)cc1OC	-1.0%	31.6µM*	3.6%	-1.3%	-5.7%
CC(C)(C)c1cc(=O)n2c(C#N)c(C#N)nc2[nH]1	0.3%	28.2µM*	87.4%	-18.9%	-9.0%
CC(C)(C)n1ncc2c(=O)n(Cc3ccc(C#N)cc3)cnc21	/	/	-0.2%	-2.0%	/
COC(=O)c1ccccc1NC(=O)Cn1c(=O)n(CCCC(=O)NCCc2ccc(OC)c(OC)c2)c(=O)c2ccccc21	-0.2%	-17.1%	-1.2%	2.5%	1.8%
Cc1cccc(-n2c(O)c(C=Nc3ccc(O)cc3)c3ccccc3c2=O)n1	-11.9%	7.08µM*	-18.8%	-19.4%	-0.3%
Cn1c2ccccc2c2ncn(Cc3ccco3)c(=O)c21	-28.1%	31.6µM*	49.7%	-6.7%	-21.3%
Cn1c2ccccc2c2ncn(Cc3ccc(F)cc3)c(=O)c21	-1.5%	/	-0.6%	-9.2%	2.8%
Cn1c2ccc(F)cc2c2ncn(Cc3ccco3)c(=O)c21	-19.3%	25.1µM*	31.9%	-3.6%	-15.7%
COc1ccc(CCNC(=O)c2c(O)c3cc(OC)c(OC)cc3[nH]c2=O)cc1OC	/	-8.9%	/	/	/
CN1CCN(CCCNC(=O)Nc2cccc3ccccc23)CC1	-4.5%	15.8µM*	27.9%	0.6%	-9.9%
COc1cc2[nH]c(=O)n(CCCCCC(=O)NCCCN3CCOCC3)c(=O)c2cc1OC	-3.7%	22.4µM*	16.7%	0.4%	-8.8%
COc1cc2[nH]c(=O)c(C(=O)NCCCN3CCCCC3)c(O)c2cc1OC	3.3%	3.55µM*	38.5%	-12.9%	-14.9%
COc1cc2[nH]c(=O)n(CCCCCC(=O)NCCCN3CCC(C)CC3)c(=O)c2cc1OC	0.6%	15.8µM*	15.1%[57.1 µM]	14.4%[57.1 µM]	7.4%
O=C(CCCn1c(=O)c2ccccc2n(Cc2ccc(F)cc2Cl)c1=O)NCCc1ccc(Cl)cc1	-3.8%	-0.6%	17.0%	16.8%	-6.0%
Cc1ccc(NC(=O)Cn2c(=O)n(-c3ccc(Cl)c(Cl)c3)c(=O)c3c(C)c(C)sc32)c(C)c1	-1.3%	0.1%	-2.7%	6.0%	-2.7%
COc1cc2[nH]c(=O)n(CCCC(=O)NC3CCCCC3)c(=O)c2cc1OC	5.6%	1.4%	8.2%[57.1 µM]	7.1%[57.1 µM]	-6.0%
COc1cc2[nH]c(=O)n(CCC(=O)NCCC(C)C)c(=O)c2cc1OC	4.4%	20µM*	33.3%	11.4%	-0.7%
CCOc1cc2[nH]c(=O)n(CCCCCC(=O)NC3CCCC3)c(=O)c2cc1OCC	2.6%	3.9%	3.6%	-20.9%	-1.3%
Cc1cccnc1NC(=O)Nc1cccc2ccccc12	-1.4%	25.1µM*	49.8%	3.8%	11.7%
CCOc1cc2[nH]c(=O)n(CCCN3CCCC3=O)c(=O)c2cc1OCC	-8.8%	11.2µM*	44.5%	15.0%	-11.4%
COc1cc2[nH]c(=O)n(CCCCCC(=O)NCCCN3CCCC3=O)c(=O)c2cc1OC	-8.8%	28.2µM*	28.8%	10.7%	1.8%
O=C(Nc1ccccc1)Nc1cccc2ccccc12	-24.1%	/	3.2%	15.1%	-11.3%
COc1cc2[nH]c(=O)n(CCCC(=O)NCCc3ccccc3)c(=O)c2cc1OC	-11.0%	-0.9%	23.6%	3.1%	-10.3%
COc1ccc(CNC(=O)Nc2cccc3ccccc23)cc1	-17.7%	31.6µM*	-4.7%	-1.5%	-9.0%
COc1cc2[nH]c(=O)n(Cc3ccc(C(=O)N4CCC(N5CCCCC5)CC4)cc3)c(=O)c2cc1OC	-0.3%	5.0%	20.5%	31.5%	-1.3%
CCOc1cc2[nH]c(=O)n(Cc3ccccc3)c(=O)c2cc1OCC	1.7%	12.6µM*	1.9%	13.7%	-2.4%
COc1ccc(CNC(=O)CCn2c(=O)[nH]c3ccccc3c2=O)cc1	-1.5%	28.2µM*	-8.5%	9.6%[57.1 µM]	-1.5%
COc1cc2[nH]c(=O)n(CCC(=O)N3CCC(N4CCCCC4)CC3)c(=O)c2cc1OC	0.5%	31.6µM*	14.4%	-12.7%	-7.3%
CCCSc1ncc(Cl)c(C(=O)Nc2sc3c(c2C(=O)NCC)CCCC3)n1	1.6%	-1.2%	-10.1%	-6.0%	6.0%
COC(=O)c1cc(COc2ccc3oc(C)c(C(=O)OC(C)C)c3c2)c(C)o1	-1.1%	2.51µM*	-7.0%	10.8%	1.2%
CCOC(=O)c1ccc(OC(=O)c2cn(-c3ccc(C)cc3)c(=O)c3ccccc23)cc1	4.1%	-20.9%	0.9%[57.1 µM]	4.5%[57.1 µM]	-20.2%
CC1=C(/C=C/C(C)=C/C=C/C(C)=C\C(=O)O)C(C)(C)CCC1	/	-4.1%	3.0%[57.1 µM]	35.5µM*	?

TrxR1 inh, hit marks shown above.
structure | miR-21 reporter | TrxR1 substrate | TrxR1 inh | Apoferritin bind
CCNC(=O)NC(=O)COC(=O)c1ccccc1SCC(=O)NC(=O)NCC | -27.9% | 57.3% | 35.5µM* | -7.7%
O=S(=O)(c1ccc(NC(=S)Nc2ccc3c(c2)OCO3)cc1)N1CCOCC1 | -37.7% | -5.2% | 39.8µM* | 1.1%
COc1cc(NC(=S)Nc2ccc(S(=O)(=O)N3CCOCC3)cc2)cc(OC)c1OC | -3.2% | 9.7% | 14.1µM* | -18.7%
O=[N+]([O-])c1cc(Cl)cc(/C=N/NC(=S)Nc2ccc(S(=O)(=O)N3CCOCC3)cc2)c1O | 10.1% | -7.2% | 79.4µM* | ?
CC1=C(/C=C/C(C)=C/C=C/C(C)=C\C(=O)O)C(C)(C)CCC1 | / | 3.0%[57.1 µM] | 35.5µM* | ?

Screening results deposited in PubChem BioAssay by National Center for Advancing Translational Sciences (NCATS).
